Substrate in the data set: CCn1c(=NN=c2sc3cc(S(=O)(=O)O)ccc3n2CC)sc2cc(S(=O)(=O)O)ccc21
Briefly: purified protein. The conditions noted are these: 100 µM H2O2, 25 mM MnSO4, optimal pH and temperature (pH 3.5, 40 °C). Type of data set: biochemical, Pleurotus sapidus.

The kcat is the number of substrate molecules converted per active site and unit of time at saturation.

B1: PsaPOX (DyP-type peroxidase of Pleurotus sapidus) (Pleurotus sapidus) (protein)
chain: MTTPAPPLDLNNIQGDILGGLPKKTETYFFFDVTNVDRFKANMTQFIPHVKTSAGIVKDREAIKEHKRQKRPGLVPMAAVNVSFSHLGLQKLGITDDLSDSSFTTGQRKDAEVLGDPGTKNGDTFTPAWEAPFLKDIHGVIFVAGDCHASVHKKLDEIKHIFGVGTSHASISEVTHVRGDVRPGQVSAHEHFGFLDGISNPAVDQFDQNPFPGQDSIRPGFILAKENGDSRAAARPDWAKDGSFLTFRYLFQMVPEFDDFLESNPIVLPGLSRKEGSELLGARIVGRWKSGAPIEITPLKDDPKLGADAQRNNNFDFGDSLVRGDQTKCPFAAHIRKTYPRNDLEGPPLNADIDNRRIIRRGIQFGPEVTSQEHHDKKTHHGRGLLFVCYSSSIDDGFHFIQQSWANAPNFPVNAVTSAGPIPPLDGVIPGFDAIIGQKVGGGIRQISGTNPNDPTTNITLPDQDFVIPRGGEYFFSPSISALKTKFAAGVASSAPQAQAPIST
notes: full-length ORF (1512 bp, 504 aa), C-terminal 6x His tag kept, S. cerevisiae alpha-factor secretion signal (pPIC9), Komagataella pfaffii GS115, Ni-NTA; monomeric; native peptides EGSELLGAR, DGSFLTFR, SGAPIEITPLKDDPK
For the protein B1, the kcat was found to be 6.8 ± 0.2 s⁻¹.

The record behind these values is paper PMC7181223, “A DyP-Type Peroxidase of Pleurotus sapidus with Alkene Cleaving Activity” (Molecules, 2020).
